Results published in patent US20150216937A1, “METHODS FOR TREATING NEOPLASIA” (Altor BioScience Corporation, priority 2012, published 2015).

Legend:
[1] = tested on: MB49luc orthotopic muscle invasive bladder tumors; assay: ALT-801 versus IL-2 in orthotopic MB49luc model; type: in vivo, C57BL/6 mice; conditions: i.v. days 7, 10, 14, 17; ALT-801 1.6 mg/kg vs IL-2 and PBS P≦0.0002; IL-2 0.42 mg/kg vs PBS P=0.84
Method: The anti-tumor effect of ALT-801 and IL-2 intravenous treatment was evaluated in a mouse bladder orthotopic model in immunocompetent C57BL/6 mice. C57BL/6 mice (10-11 weeks old) were instilled intravesically with MB49luc cells (3×10^4 cells/bladder in 100 μL) on day 0 following polylysine pretreatment of the bladder. ALT-801 (1.6 mg/kg, n=8), IL-2 (0.42 mg/kg, n=8) or PBS (100 μL, n=8) was administered i.v. on 7, 10, 14 and 17 days post tumor cell instillation.

[2] = tested on: cisplatin-refractory advance/metastatic urothelial carcinoma; conditions: systemic administration; vs 6-7 months with salvage chemotherapy; cited from earlier work
[3] = tested on: CD8+CD44high memory T cells; assay: In vivo CD8+CD44high memory T cell phenotype and adoptive transfer; design: species or system C57BL/6 mice; conditions: Celltrace Violet-labeled splenocytes; naïve C57BL/6 recipients
From the text: It has been shown recently that cytokine-mediated stimulation could promote antigen-nonspecific expansion of memory CD8^+ cells with a unique phenotype. […] Without being bound to a particular theory, ALT-801 activation of this type of memory CD8^+ T cell plays a major role in the anti-MB49luc tumor activity in mice. To evaluate this possibility, it was first examined whether ALT-801 alone could induce memory CD8^+ T cell expansion in-vitro. The phenotype of CD8^+CD44^high T cells were compared after activation with ALT-801 or anti-CD3 antibody (TCR-dependent engagement). […] To examine whether a similar phenomenon occurs in-vivo, non-tumor bearing mice were injected intravenously with ALT-801 at 1.6 mg/kg (in 100 μL) or PBS (100 μL) twice (72 hours apart) and the phenotypes of PBMCs and splenocytes were analyzed one day after the second PBS or ALT-801 treatment. […]
In this study, Celltrace™ Violet-labeled splenocytes (0.5×10^6) were adoptively transferred from naïve C57BL/6 mice into naïve isogenic C57BL/6 mice and then the mice were treated with ALT-801 or PBS intravenously one day after the adoptive cell transfer. The phenotypes of the CD8^+CD44^high T cells from the spleens of the recipient mice were then analyzed one day after the second ALT-801 or PBS treatment. […]

Substance: IL-2: recombinant human IL-2
- survival of mice / anti-tumor effect [1]: no anti-tumor effect
- median survival [2]: over 10 months
- proliferation of adoptively transferred CD8+CD44high T cells [3]: but not
